Results reported in ChEMBL document CHEMBL1201862, “PubChem BioAssay data set” (2004).
Several values for one entry are separate records, joined by “and”; a condition that tells them apart may be missing. Equal entries are not always repeated.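 Five compound concentrations were applied to cells in 96-well plates for 48 hours; endpoints were derived by simple linear interpolation of the resulting dose-response curve. GI50 is the concentration that inhibits growth by half.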 Activity calls are given as the source filed them. No stated cut-off is given here; in the data, active = GI50 up to about 1.1 µM and inactive = higher.

Tested on: NCI-H23
Assay: NCI tumour cell line growth inhibition, 48 h

In the case of `O=C(NC(=O)c1cn(C2OC(CO)C(O)C2O)c(=O)[nH]c1=O)OCc1ccccc1` (stereo unspecified), the GI50 is reported as inactive: > 100 µM and inactive: 85.5 µM.
